Counter-ions that a name gives are not always drawn.
Assays:
[1] = system: eGFP-expressing recombinant CVB3; assay type: cell-based, coxsackievirus B3; settings: read 6 hr post infection
[2] = system: coxsackievirus B3-MCH (CVB3-MCH); settings: HeLa-RW, with or without fluoxetine, plaque reduction (FIG. 4)
coxsackievirus B3 (CVB3) = test: Cell viability assay, prevention of cell death caused by CVB3 infection; assay type: cell-based; settings: 50% Cytotoxic concentration/50% activity concentration
Method: Procedure: Enteroviruses rapidly cause cell death, and a cell viability assay was used to examine the cytotoxicity of each compound and to identify the concentration needed to prevent cell death caused by coxsackievirus B3 (CVB3) infection.
Compounds were diluted two-fold and added to wells of 384 well plate. HeLa-RW cells were then added (cytotoxicity testing), or cells and CVB3 were added to provide a low multiplicity of infection to determine concentration of peak activity or 50% maximal concentration. Selectivity index is defined as the 50% Cytotoxic concentration/50% activity concentration

coxsackievirus B2 (CVB2) = settings: HeLa-RW, with or without fluoxetine, plaque reduction (FIG. 4)
CVB3-H3 = test: Plaque reduction assay, CVB3-H3 in HeLa-RW cells; assay type: cell-based, coxsackievirus B3; settings: compound added 30 min before infection, CVB3-H3 MOI 1, HeLa-RW, 6 hours; log10(titer with DMSO only/titer with inhibitor)
[3] = system: coxsackievirus B1, (CVB1); settings: HeLa-RW, with or without fluoxetine, plaque reduction (FIG. 4)

Structure (SMILES): CNCCC(Oc1ccc(C(F)(F)F)cc1)c1ccccc1 (centres unmarked) [Compound 72, N-Methyl-3-phenyl-3-[4-(trifluoromethyl)phenoxy]-1-propanamine hydrochloride (1:1), reference compound]
- % of eGFP + cells, 0 Hr ([1]; compound added 0 hr post infection at its peak activity concentration, DMSO 26.0): 0.0%
- % of eGFP + cells, 1 Hr ([1]; compound added 1 hr post infection at its peak activity concentration, DMSO 23.7): 0.0%
- % of eGFP + cells, 2 Hr ([1]; compound added 2 hr post infection at its peak activity concentration, DMSO 24.8): 0.0%
- reduction of replication, CVB3-MCH [2]: 3.6 log 10 units
- Selectivity index (coxsackievirus B3 (CVB3)): 11
- reduction of replication, CVB2 (coxsackievirus B2 (CVB2)): 4.2 log 10 units
- Log10 reduction of virus titer (CVB3-H3): 4.7
- reduction of replication, CVB1 [3]: 4.2 log 10 units
